Target: Aldo-keto reductase family 1 member B1 (Rattus norvegicus, UniProt P07943)
Assay: In vitro inhibitory activity of compound against rat lens aldose reductase
Summary of the method: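 Enzyme from lenses of Fischer-344 rats of both sexes. Activity followed spectrophotometrically as NADPH oxidation. Compounds dissolved in 0.2 M NaHCO3 and tested at five concentrations in triplicate. IC50 from least-squares analysis of the linear portions of log(dose)–response curves (0.880 < r2 < 0.993).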

IC50: 0.25 µM
Compound: O=C1NC(=O)[C@@]2(CCOc3ccc(F)cc32)N1 [SORBINIL]

Source: ChEMBL document CHEMBL1148454, “[1-(3,5-difluoro-4-hydroxyphenyl)-1H-pyrrol-3-yl]phenylmethanone as a bioisostere of a carboxylic acid aldose reductase inhibitor” (J Med Chem, 2004)
